Measurements published in paper PMC10071563, “The structure of the complex between the arsenite oxidase from Pseudorhizobium banfieldiae sp. strain NT-26 and its native electron acceptor cytochrome c 552” (2023).

Protein sequences, listed by entry. Tags and fused reporters are not part of them. Lines headed by an entry give the natural chain unless they say otherwise; changes in a name come on top.
UniProt Q6VAL8: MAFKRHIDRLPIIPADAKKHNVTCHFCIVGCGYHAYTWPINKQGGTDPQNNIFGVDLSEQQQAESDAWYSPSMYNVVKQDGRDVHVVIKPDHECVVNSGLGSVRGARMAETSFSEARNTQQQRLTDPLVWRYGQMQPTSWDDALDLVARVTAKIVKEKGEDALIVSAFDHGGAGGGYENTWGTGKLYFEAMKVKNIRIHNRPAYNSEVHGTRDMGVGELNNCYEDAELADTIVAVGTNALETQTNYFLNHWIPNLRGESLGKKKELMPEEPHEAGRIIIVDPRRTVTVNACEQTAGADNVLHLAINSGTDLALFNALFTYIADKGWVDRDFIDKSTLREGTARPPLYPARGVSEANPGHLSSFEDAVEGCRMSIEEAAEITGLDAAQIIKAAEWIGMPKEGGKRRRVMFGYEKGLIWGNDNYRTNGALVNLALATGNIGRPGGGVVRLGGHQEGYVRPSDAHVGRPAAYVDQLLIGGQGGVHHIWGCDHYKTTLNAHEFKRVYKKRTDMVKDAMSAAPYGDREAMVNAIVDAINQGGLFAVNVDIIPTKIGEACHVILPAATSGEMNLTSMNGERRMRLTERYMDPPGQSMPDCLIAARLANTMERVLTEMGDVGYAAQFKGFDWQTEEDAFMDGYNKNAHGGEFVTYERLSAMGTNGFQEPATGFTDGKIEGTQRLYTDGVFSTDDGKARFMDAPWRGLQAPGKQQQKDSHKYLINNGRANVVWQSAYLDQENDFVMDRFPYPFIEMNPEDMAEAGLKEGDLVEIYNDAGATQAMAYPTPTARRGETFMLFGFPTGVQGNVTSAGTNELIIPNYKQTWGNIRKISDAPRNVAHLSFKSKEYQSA

Biological target: AioAB (arsenite oxidase) (Pseudorhizobium banfieldiae, UniProt Q6VAL8)
Test: steady-state kinetics, cytochrome c552 reduction at […] nm
Settings: read-out: K m(arsenite); cytochrome c552 20 µM as electron acceptor; 50 mM Tris-HCl pH 8.0; 2 nM enzyme

SMILES: O[As](O)O
- Km: 9.06 µM
